# From US9572811B2, “Treatment of dry eye” (PRINCIPIA BIOPHARMA INC., priority 2012, dated 2017)
# Sequences of proteins named here, by UniProt entry; tags and fusion partners are left off. A change or cut given only in a name is not applied to a line headed by its entry.
# UniProt Q06187: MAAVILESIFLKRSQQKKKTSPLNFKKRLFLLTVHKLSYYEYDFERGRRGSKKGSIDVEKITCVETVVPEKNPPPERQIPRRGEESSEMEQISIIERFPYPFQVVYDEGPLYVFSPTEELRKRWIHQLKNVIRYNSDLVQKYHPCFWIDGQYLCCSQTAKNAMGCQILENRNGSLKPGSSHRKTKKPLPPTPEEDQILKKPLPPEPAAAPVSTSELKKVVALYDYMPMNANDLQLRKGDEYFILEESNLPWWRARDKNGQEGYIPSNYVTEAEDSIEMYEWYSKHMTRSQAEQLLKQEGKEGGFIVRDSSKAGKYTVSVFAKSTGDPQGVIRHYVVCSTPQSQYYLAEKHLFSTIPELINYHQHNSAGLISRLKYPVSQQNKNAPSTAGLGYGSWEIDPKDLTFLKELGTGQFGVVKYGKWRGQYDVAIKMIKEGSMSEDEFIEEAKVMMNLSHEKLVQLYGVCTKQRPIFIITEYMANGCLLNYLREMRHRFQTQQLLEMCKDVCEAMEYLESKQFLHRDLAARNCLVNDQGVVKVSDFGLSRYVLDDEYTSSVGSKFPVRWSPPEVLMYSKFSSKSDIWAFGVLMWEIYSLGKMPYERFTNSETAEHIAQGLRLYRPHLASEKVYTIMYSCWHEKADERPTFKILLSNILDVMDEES
# Target: human recombinant Btk (Homo sapiens (Human), UniProt Q06187)
# Assay: Btk enzymatic activity assay (Caliper-based kinase assay)
# Type: biochemical
# Conditions: human recombinant Btk 2 nM, ATP 40 μM, peptide substrate 1 μM, room temperature 3 h
row,IC50,SMILES
1,56 nM,"Cc1c(-c2ccc(Oc3ccccc3)cc2F)c2c(N)ncnc2n1C[C@@H]1CCCN1C(=O)C(C#N)=CC1CC1 [Cpd 65B, (S)-2-(2-((4-amino-5-(2-fluoro-4-phenoxyphenyl)-6-methyl-7H-pyrrolo[2,3-d]pyrimidin-7-yl)methyl)pyrrolidine-1-carbonyl)-3-cyclopropylacrylonitrile]"
2,7 nM,"Cc1c(-c2ccc(Oc3ccccc3)cc2)c2c(N)ncnc2n1C[C@@H]1CCCN1C(=O)/C(C#N)=C\C(C)(C)N(C)C [Cpd 77B, (S)-2-(2-((4-amino-6-methyl-5-(4-phenoxyphenyl)-7H-pyrrolo[2,3-d]pyrimidin-7-yl)methyl)pyrrolidine-1-carbonyl)-4-(dimethylamino)-4-methylpent-2-enenitrile]"
3,16 nM,"CNC(C)(C)C=C(C#N)C(=O)N1CCC[C@H]1Cn1nc(-c2ccc(Oc3ccccc3)cc2F)c2c(N)ncnc21 [Cpd 83B, (S)-2-(2-((4-amino-3-(2-fluoro-4-phenoxyphenyl)-1H-pyrazolo[3,4-d]pyrimidin-1-yl)methyl)pyrrolidine-1-carbonyl)-4-methyl-4-(methylamino)pent-2-enenitrile]"
4,3.6 nM,"CN(C)C(C)(C)C=C(C#N)C(=O)N1CCC[C@@H]1Cn1nc(-c2ccc(Oc3ccccc3)cc2F)c2c(N)ncnc21 [Cpd 84A, (R)-2-(2-((4-amino-3-(2-fluoro-4-phenoxyphenyl)-1H-pyrazolo[3,4-d]pyrimidin-1-yl)methyl)pyrrolidine-1-carbonyl)-4-(dimethylamino)-4-methylpent-2-enenitrile]"
